Data taken from patent publication EP1903056A2, “HLA-A1, -A2 -A3, -A24, -B7, and -B44 tumor associated antigen peptides and compositions” (priority 2002, dated 2004).
Read-outs that look alike come from different tables or passages of the source.

How the values were obtained:
[1] = molecular target: B*4402 (Homo sapiens, UniProt P01889, A223V/A65T/A93T/A95T/D201E/D98Y/E176V/E187L/E204Q/E69K/G107R/H137Y/K202T/L105A/L119I/N104T/N87E/Q56L/Q94N/R106L/R155S/R180D/S101N/S121R/S35A/S48T/T118I/V36M/W191S/Y140D/Y91S); assay: B44 supertype peptide binding, B*4402; conditions: read-out: B* 4402
[2] = test system: B44 supertype (B*1801, B*4001, B*4002, B*4402, B*4403, B*4501); assay: B44 supertype cross-binding (degeneracy, alleles bound); parameters: species or system human; conditions: number of the six B44 supertype alleles bound
[3] = molecular target: B*4501 (Homo sapiens, UniProt P01889, A329T/A65T/A93T/A95T/C349S/D138N/D201E/D98Y/E176V/E187L/E204Q/E69K/H137Y/K202T/L119W/N87E/Q56L/Q94N/R155S/R180D/S121R/S35A/S48T/V127L/V306I/V36M/W191S/Y140L/Y33H/Y91S); assay: B44 supertype peptide binding, B*4501; conditions: read-out: B* 4501
[4] = molecular target: B*4001(B60) (Homo sapiens, UniProt P01889, A65T/A93T/A95T/D138N/D98Y/E176V/E69K/N87E/Q56L/Q94N/R180L/S121R/S35A/S48T/T167S/V36M/W171L/Y33H/Y91S); assay: B44 supertype peptide binding, B*4001; conditions: read-out: B* 4001
[5] = molecular target: B*4002 (B61) (Homo sapiens, UniProt P01889, A65T/A93T/A95T/D138N/D201E/D98Y/E176V/E204Q/E69K/K202T/N87E/Q56L/Q94N/R180L/S48T/Y33H/Y91S); assay: B44 supertype peptide binding, B*4002; conditions: Table 29: MAGE2-derived B44 peptides; read-out: B* 4002
[6] = test system: B44 supertype (B*1801, B*4001, B*4002, B*4402, B*4403, B*4501); assay: B44 supertype cross-binding (degeneracy, number of alleles bound); parameters: species or system human; conditions: Table 29: MAGE2-derived B44 peptides; number of the six B44 alleles bound
[7] = molecular target: B*1801 (Homo sapiens, UniProt P01889, A329T/A93T/A95T/C349S/D201E/D54G/D98Y/E176V/E187T/E204Q/E69T/K202T/Q94N/R155S/R180L/S121R/V306I/Y140S/Y195H/Y33H/Y91S); assay: B44 supertype peptide binding, B*1801; conditions: Table 29: MAGE2-derived B44 peptides
[8] = molecular target: B*4403 (Homo sapiens, UniProt P01889, A223V/A65T/A93T/A95T/D201E/D98Y/E176V/E187L/E204Q/E69K/G107R/H137Y/K202T/L105A/L119I/N104T/N87E/Q56L/Q94N/R106L/R155S/R180L/S101N/S121R/S35A/S48T/T118I/V36M/W191S/Y140D/Y91S); assay: B44 supertype peptide binding, B*4403; conditions: Table 29: MAGE2-derived B44 peptides; read-out: B* 4403
[9] = CEA-derived B44 peptides, binding affinity, unit inferred
[10] = Table 29: MAGE2-derived B44 peptides

SMILES | Degeneracy [2] | IC50 [3, 9] | IC50 [4, 9] | also measured
CC[C@H](C)[C@H](NC(=O)[C@H](CC(N)=O)NC(=O)[C@H](CO)NC(=O)[C@@H](NC(=O)[C@H](Cc1ccccc1)NC(=O)[C@H](CC(C)C)NC(=O)[C@H](CCC(=O)O)NC(=O)[C@@H](N)CCC(N)=O)[C@@H](C)CC)C(=O)O | 1 |  |  | IC50 [1, 9]: 2.28 µM
CC[C@H](C)[C@H](N)C(=O)N[C@@H](CCC(=O)O)C(=O)N[C@@H](CO)C(=O)N[C@H](C(=O)N1CCC[C@H]1C(=O)N[C@@H](Cc1ccccc1)C(=O)N[C@@H](CC(N)=O)C(=O)N[C@H](C(=O)N[C@@H](C)C(=O)N[C@@H](CCC(=O)O)C(=O)NCC(=O)O)C(C)C)[C@@H](C)O [compound 370] | 5 |  |  | 
CC[C@H](C)[C@H](NC(=O)CNC(=O)[C@H](CS)NC(=O)[C@H](CCC(=O)O)NC(=O)[C@@H](N)Cc1ccc(O)cc1)C(=O)N[C@@H](CCC(N)=O)C(=O)N[C@@H](CC(N)=O)C(=O)N[C@@H](CCC(=O)O)C(=O)N[C@@H](CC(C)C)C(=O)O [compound 371] | 5 | 0.855 µM |  | IC50 [1, 9]: 0.452 µM
CC[C@H](C)[C@H](NC(=O)CNC(=O)[C@H](CS)NC(=O)[C@H](CCC(=O)O)NC(=O)[C@@H](N)Cc1ccc(O)cc1)C(=O)N[C@@H](CCC(N)=O)C(=O)N[C@@H](CC(N)=O)C(=O)N[C@@H](CCC(=O)O)C(=O)N[C@@H](CC(C)C)C(=O)N[C@@H](CO)C(=O)N[C@H](C(=O)O)C(C)C [compound 372] | 5 |  |  | 
CSCC[C@H](N)C(=O)N[C@@H](CCC(=O)O)C(=O)N[C@@H](CO)C(=O)N1CCC[C@H]1C(=O)N[C@@H](CO)C(=O)N[C@@H](C)C(=O)N1CCC[C@H]1C(=O)N1CCC[C@H]1C(=O)N[C@@H](Cc1c[nH]cn1)C(=O)N[C@@H](CCCNC(=N)N)C(=O)N[C@@H](Cc1c[nH]c2ccccc12)C(=O)O [compound 373] | 4 | 0.359 µM | 0.943 µM | 
CC(C)C[C@H](NC(=O)[C@H](CC(C)C)NC(=O)[C@@H](NC(=O)[C@H](CCC(=O)O)NC(=O)[C@H](CCCCN)NC(=O)CNC(=O)[C@H](CCC(=O)O)NC(=O)[C@H](C)N)C(C)C)C(=O)N[C@@H](CC(C)C)C(=O)N[C@H](C(=O)O)C(C)C [compound 375] | 4 | 0.994 µM |  | 
CC[C@H](C)[C@H](NC(=O)[C@H](CCC(=O)O)NC(=O)[C@@H](N)CCCNC(=N)N)C(=O)N[C@H](C(=O)N[C@@H](Cc1ccc(O)cc1)C(=O)N1CCC[C@H]1C(=O)N[C@@H](CC(N)=O)C(=O)N[C@@H](C)C(=O)N[C@@H](CO)C(=O)N[C@@H](CC(C)C)C(=O)N[C@@H](CC(C)C)C(=O)O)[C@@H](C)CC [compound 378] | 4 |  |  | 
CC(C)[C@H](NC(=O)[C@@H]1CCCN1C(=O)[C@H](CC(N)=O)NC(=O)[C@H](CCC(N)=O)NC(=O)[C@@H](NC(=O)[C@H](CCC(=O)O)NC(=O)[C@@H](N)CS)[C@@H](C)O)C(=O)N[C@@H](CO)C(=O)N[C@@H](C)C(=O)O [compound 379] | 4 |  | 7.02 µM | 
CC[C@H](C)[C@H](NC(=O)[C@H](CC(N)=O)NC(=O)[C@@H]1CCCN1C(=O)[C@@H](NC(=O)[C@H](Cc1ccccc1)NC(=O)[C@H](CC(C)C)NC(=O)[C@H](CCC(=O)O)NC(=O)[C@@H](N)CCC(N)=O)[C@@H](C)CC)C(=O)N[C@H](C(=O)O)[C@@H](C)O [compound 380] | 4 |  |  | 
CC(C)[C@H](NC(=O)[C@H](CCCNC(=N)N)NC(=O)[C@H](Cc1ccccc1)NC(=O)[C@H](CCC(N)=O)NC(=O)CNC(=O)[C@@H](NC(=O)[C@H](C)NC(=O)[C@H](CCC(=O)O)NC(=O)[C@H](CCC(=O)O)NC(=O)[C@@H](N)CC(N)=O)[C@@H](C)O)C(=O)N[C@@H](Cc1ccc(O)cc1)C(=O)O [compound 383] | 3 | 3.99 µM | 3.25 µM | 
CC[C@H](C)[C@H](NC(=O)[C@H](CC(N)=O)NC(=O)[C@@H]1CCCN1C(=O)[C@@H](NC(=O)[C@H](Cc1ccccc1)NC(=O)[C@H](CC(C)C)NC(=O)[C@H](CCC(=O)O)NC(=O)[C@@H](N)CCC(N)=O)[C@@H](C)CC)C(=O)O [compound 387] | 3 | 1.32 µM | 5.82 µM | IC50 [1, 9]: 1.34 µM
CC[C@H](C)[C@H](NC(=O)[C@H](CCC(=O)O)NC(=O)[C@@H]1CCCN1)C(=O)N[C@@H](CCC(N)=O)C(=O)N[C@@H](CC(N)=O)C(=O)N[C@H](C(=O)N[C@H](C(=O)N[C@@H](Cc1ccc(O)cc1)C(=O)N[C@@H](CC(C)C)C(=O)N[C@@H](Cc1c[nH]c2ccccc12)C(=O)N[C@@H](Cc1c[nH]c2ccccc12)C(=O)O)[C@@H](C)O)[C@@H](C)O [compound 389] | 3 | 1.36 µM | 0.749 µM | 
CC(C)C[C@H](NC(=O)[C@H](CCC(=O)O)NC(=O)[C@@H](N)CC(N)=O)C(=O)N[C@@H](CO)C(=O)N[C@H](C(=O)N[C@@H](CC(=O)O)C(=O)N[C@@H](Cc1c[nH]cn1)C(=O)N[C@@H](CO)C(=O)N[C@@H](CC(=O)O)C(=O)N1CCC[C@H]1C(=O)N[C@H](C(=O)O)C(C)C)C(C)C [compound 391] | 3 |  |  | 
CC[C@H](C)[C@H](NC(=O)[C@H](Cc1ccccc1)NC(=O)[C@H](CC(C)C)NC(=O)[C@H](CCC(=O)O)NC(=O)[C@@H](N)CCC(N)=O)C(=O)N[C@@H](CO)C(=O)N[C@@H](CC(N)=O)C(=O)N[C@H](C(=O)N[C@H](C(=O)O)[C@@H](C)O)[C@@H](C)CC [compound 392] | 3 |  | 6.57 µM | IC50 [1, 9]: 2.33 µM
CC[C@H](C)[C@H](NC(=O)[C@H](CCC(N)=O)NC(=O)[C@H](CCCNC(=N)N)NC(=O)[C@H](CC(N)=O)NC(=O)CNC(=O)[C@H](CC(=O)O)NC(=O)[C@@H](NC(=O)[C@H](CCCNC(=N)N)NC(=O)[C@H](CCC(=O)O)NC(=O)CN)C(C)C)C(=O)O [compound 394] | 2 | 19.5 µM |  | 
CC(C)[C@H](NC(=O)[C@H](CCCNC(=N)N)NC(=O)[C@H](Cc1ccccc1)NC(=O)[C@H](CCC(N)=O)NC(=O)CNC(=O)[C@@H](NC(=O)[C@H](C)NC(=O)[C@H](CCC(=O)O)NC(=O)[C@@H](N)CCC(=O)O)[C@@H](C)O)C(=O)N[C@@H](Cc1ccc(O)cc1)C(=O)O [compound 397] | 2 |  | > 10 µM | 
CC(C)C[C@H](NC(=O)CNC(=O)[C@H](CCC(=O)O)NC(=O)[C@H](CCC(=O)O)NC(=O)[C@@H]1CCCN1)C(=O)N[C@@H](CCC(=O)O)C(=O)N[C@@H](C)C(=O)N[C@@H](CCCNC(=N)N)C(=O)NCC(=O)N[C@@H](CCC(=O)O)C(=O)N[C@@H](C)C(=O)O [compound 712] |  |  |  | IC50 [3, 10]: 3.19 µM; IC50 [5]: 18.6 µM; IC50 [4, 10]: > 10 µM; Degeneracy [6]: 0; IC50 [1, 10]: > 10 µM; IC50 [7]: 15.2 µM; IC50 [8]: 0.95 µM
NC(=O)CC[C@H](NC(=O)[C@H](CC(N)=O)NC(=O)[C@H](CO)NC(=O)[C@H](CO)NC(=O)CNC(=O)[C@H](CCC(=O)O)NC(=O)[C@@H](N)CC(=O)O)C(=O)N[C@@H](CCC(=O)O)C(=O)N[C@@H](CCC(=O)O)C(=O)N[C@@H](CCC(=O)O)C(=O)NCC(=O)O [compound 714] |  |  |  | IC50 [3, 10]: > 10 µM; IC50 [5]: > 10 µM; IC50 [4, 10]: > 10 µM; Degeneracy [6]: 0; IC50 [1, 10]: > 10 µM; IC50 [7]: 10.8 µM; IC50 [8]: 2.12 µM
